# Test results from PubChem BioAssay AID697 (Columbia University Molecular Screening Center, 2007).
# By UniProt entry, the sequences of proteins in these tests, tags left out.
# UniProt Q9Y2R2, whole entry: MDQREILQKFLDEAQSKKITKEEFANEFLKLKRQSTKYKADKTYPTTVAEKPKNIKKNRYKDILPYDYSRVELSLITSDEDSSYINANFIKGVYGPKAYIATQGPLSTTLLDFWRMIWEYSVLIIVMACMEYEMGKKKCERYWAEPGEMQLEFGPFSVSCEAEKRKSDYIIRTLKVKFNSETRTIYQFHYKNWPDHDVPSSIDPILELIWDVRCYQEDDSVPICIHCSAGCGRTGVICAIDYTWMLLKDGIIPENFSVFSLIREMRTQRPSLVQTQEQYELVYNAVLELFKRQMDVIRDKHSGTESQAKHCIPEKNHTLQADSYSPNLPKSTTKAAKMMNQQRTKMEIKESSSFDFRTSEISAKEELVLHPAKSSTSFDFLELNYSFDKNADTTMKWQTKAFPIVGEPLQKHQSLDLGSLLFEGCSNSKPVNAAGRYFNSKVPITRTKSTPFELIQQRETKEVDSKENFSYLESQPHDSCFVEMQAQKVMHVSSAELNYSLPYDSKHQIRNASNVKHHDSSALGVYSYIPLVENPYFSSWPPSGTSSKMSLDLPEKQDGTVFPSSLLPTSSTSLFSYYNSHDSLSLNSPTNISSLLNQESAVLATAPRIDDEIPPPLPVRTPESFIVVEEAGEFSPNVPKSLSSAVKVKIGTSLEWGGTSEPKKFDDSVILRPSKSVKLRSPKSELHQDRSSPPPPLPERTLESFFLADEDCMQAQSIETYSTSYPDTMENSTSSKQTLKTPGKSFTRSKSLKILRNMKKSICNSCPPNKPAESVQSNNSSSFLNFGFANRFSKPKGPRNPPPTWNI
# This is a selection; strong and weak results do not stand in their true shares. Some results for these compounds are left out of this collection, so the calls shown say nothing about other tests. Calls of active or inactive are those of the source.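 How the source made its calls: active means activation at 2 µM above a set limit, the mean plus 5 SD (cut at about 37% in these data); inactive means the rest.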
# Target: Tyrosine-protein phosphatase non-receptor type 22 (Homo sapiens) (UniProt Q9Y2R2)
# Assay: enhancers of human PTPN22 catalytic activity – biochemical, DiFMUP fluorescence, 2 µM, primary screen (AID 697)
# Conditions: recombinant LYP, at 2 µM, active compounds read high, 0 = plate median, 100 = signal doubled
row,SMILES,activation
1,CN(C)c1cccc(C(=O)NCC2(N(C)C)CCCCC2)c1,inactive: 0%
2,O=C(OC1CN2CCC1CC2)C(CO)(c1ccccc1)c1ccccc1 (stereo not drawn),inactive: -1.5%
3,CC(C)N1C(=O)CC2(CCN(CCOC(=O)C(O)(c3ccccc3)c3ccccc3)CC2)C1=O,inactive: -1.8%
